In patent US20260242416A1, “ANTIMICROBIAL PEPTIDES” (priority 2023, published 2026):

What was measured:
S. aureus ATCC 29213 = type: cell-based, Staphylococcus aureus
Description: (§1) Bacteria were grown overnight at 37° C. in Mueller-Hinton Broth (MHB; Sigma-Aldrich, St. Louis. MO, USA) in a shaking incubator and aliquoted into cryovials with a 50% glycerol solution in a 1:1 ratio. No additives were added to the MHB during the growth of bacterial isolates. Glycerol stocks were stored at −80° C.
(§2) The antimicrobial activity of the putative AMPs was determined by a broth microdilution assay as described by the Clinical and Laboratory Standards Institute, with the published adaptations for testing of cationic peptides. Escherichia coli 25922 and Staphylococcus aureus 29213 isolates were purchased from the American Type Culture Collection (ATCC; Manassas, VA, USA). […] Isolated colonies were suspended in MHB and the optical density was measured with a spectrophotometer to create an initial inoculum concentration of approximately 1×10^8 cfu/mL. […]
(§3) Lyophilized 80 μg peptide aliquots synthesized by GenScript (Piscataway, NJ, USA) were resuspended to 1.28 mg/mL with UltraPure water (Thermo Fisher Scientific, Waltham, MA, USA) and serially diluted in polypropylene 96-well microtiter plates (Greiner Bio-One #650261, Kremsmunster, Austria) from 128 down to 0.5 μg/mL. […] The minimum inhibitory concentration (MIC) was determined as the lowest peptide concentration where there was no visible bacterial growth.

E. coli ATCC 25922 = type: cell-based, Escherichia coli
Description: as §1, §2, §3

[1] = test system: Salmonella enterica serovar Enteritidis (human clinical isolate); type: cell-based
Description: as §1, §2, §3

CC[C@H](C)[C@H](NC(=O)[C@H](CCCNC(=N)N)NC(=O)CNC(=O)[C@@H](NC(=O)[C@@H]1CCCN1C(=O)[C@H](Cc1ccccc1)NC(=O)[C@H](CCC(N)=O)NC(=O)[C@H](CC(C)C)NC(=O)CNC(=O)[C@H](C)N)C(C)C)C(=O)N[C@@H](Cc1c[nH]cn1)C(=O)N[C@@H](CCCNC(=N)N)C(=O)N[C@@H](Cc1c[nH]cn1)C(=O)N[C@@H](CC(C)C)C(=O)N[C@@H](CCCCN)C(=O)N[C@H](C(=O)N[C@@H](CCCNC(=N)N)C(=O)O)[C@@H](C)O [PeNi6, AGLQFPVGRIHRHLKTR]
>128/>128/>128 ug/mL: MIC (ug/mL) S. aureus (S. aureus ATCC 29213) | MIC (ug/mL) E. coli (E. coli ATCC 25922) | MIC (ug/mL) S. Enteritidis [1]
